Results as given in ChEMBL document CHEMBL2424657, “Identification of the KDM2/7 histone lysine demethylase subfamily inhibitor and its antiproliferative activity” (J Med Chem, 2013).

Sequences of proteins named here, by UniProt entry; tags and fusion partners are left off. A change or cut given only in a name is not applied to a line headed by its entry.
UniProt P29375: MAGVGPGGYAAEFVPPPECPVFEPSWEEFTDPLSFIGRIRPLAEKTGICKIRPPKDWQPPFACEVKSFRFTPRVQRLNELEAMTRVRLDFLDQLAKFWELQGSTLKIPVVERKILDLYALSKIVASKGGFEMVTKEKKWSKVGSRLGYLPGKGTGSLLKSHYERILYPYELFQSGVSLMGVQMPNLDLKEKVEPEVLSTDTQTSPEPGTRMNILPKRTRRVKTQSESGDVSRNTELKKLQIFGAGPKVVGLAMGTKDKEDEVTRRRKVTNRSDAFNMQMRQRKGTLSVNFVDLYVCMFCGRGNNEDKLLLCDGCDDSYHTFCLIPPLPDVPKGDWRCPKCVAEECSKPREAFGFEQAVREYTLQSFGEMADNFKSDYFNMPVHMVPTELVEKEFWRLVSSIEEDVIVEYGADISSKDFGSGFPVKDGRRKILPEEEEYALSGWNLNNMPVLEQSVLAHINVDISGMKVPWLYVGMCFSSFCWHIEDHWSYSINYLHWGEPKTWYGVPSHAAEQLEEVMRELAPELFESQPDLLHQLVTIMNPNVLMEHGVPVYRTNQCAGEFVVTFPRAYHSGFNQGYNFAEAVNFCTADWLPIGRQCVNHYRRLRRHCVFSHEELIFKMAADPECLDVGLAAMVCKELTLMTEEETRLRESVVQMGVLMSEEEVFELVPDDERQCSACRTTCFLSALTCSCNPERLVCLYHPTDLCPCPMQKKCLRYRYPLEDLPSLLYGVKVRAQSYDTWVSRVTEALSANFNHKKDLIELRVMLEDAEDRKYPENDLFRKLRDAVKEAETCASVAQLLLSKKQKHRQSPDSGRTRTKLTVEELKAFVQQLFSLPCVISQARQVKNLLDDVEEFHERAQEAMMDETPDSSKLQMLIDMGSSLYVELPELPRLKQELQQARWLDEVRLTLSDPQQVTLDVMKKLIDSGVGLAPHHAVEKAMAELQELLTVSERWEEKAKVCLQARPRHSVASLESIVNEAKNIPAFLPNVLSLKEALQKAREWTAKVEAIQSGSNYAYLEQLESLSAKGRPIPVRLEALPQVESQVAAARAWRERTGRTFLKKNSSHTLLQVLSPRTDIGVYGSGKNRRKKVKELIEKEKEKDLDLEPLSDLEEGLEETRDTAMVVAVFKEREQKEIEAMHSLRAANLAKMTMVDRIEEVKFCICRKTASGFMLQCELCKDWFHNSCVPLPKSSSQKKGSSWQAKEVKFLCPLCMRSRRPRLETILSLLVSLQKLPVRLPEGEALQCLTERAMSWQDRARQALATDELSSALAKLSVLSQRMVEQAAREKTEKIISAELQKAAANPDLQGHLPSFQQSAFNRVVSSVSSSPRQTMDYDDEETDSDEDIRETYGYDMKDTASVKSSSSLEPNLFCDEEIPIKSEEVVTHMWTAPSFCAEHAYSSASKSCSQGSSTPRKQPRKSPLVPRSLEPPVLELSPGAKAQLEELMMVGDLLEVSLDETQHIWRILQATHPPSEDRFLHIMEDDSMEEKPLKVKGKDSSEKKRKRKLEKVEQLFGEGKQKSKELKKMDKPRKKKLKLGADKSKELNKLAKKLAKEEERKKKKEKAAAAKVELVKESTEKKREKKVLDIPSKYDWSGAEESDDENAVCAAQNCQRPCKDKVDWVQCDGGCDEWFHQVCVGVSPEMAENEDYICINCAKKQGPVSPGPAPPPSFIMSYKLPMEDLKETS

Experiments:
[1] = molecular target: Lysine-specific demethylase 5A (Homo sapiens, UniProt P29375); test: Inhibition of KDM5A (unknown origin) using H3K4me3 peptide and 2-oxoglutarate as substrate after 1 hr by FDH-coupled assay
How it was run: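 Run as the FDH-coupled KDM4C format, with compounds in DMSO and activity relative to a DMSO control. KDM4A was used at 0.37 mg/mL final with H3K9me3 peptide. KDM5A was used at 0.64 mg/mL final with H3K4me3 peptide. Values are means of two experiments.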

[2] = molecular target: T1, Lysine-specific demethylase 4C (Homo sapiens, UniProt Q9H3R0); test: Inhibition of KDM4C (unknown origin) using H3K9me3 peptide and 2-oxoglutarate as substrate after 1 hr by FDH-coupled assay
T1 sequence (Q9H3R0 whole entry): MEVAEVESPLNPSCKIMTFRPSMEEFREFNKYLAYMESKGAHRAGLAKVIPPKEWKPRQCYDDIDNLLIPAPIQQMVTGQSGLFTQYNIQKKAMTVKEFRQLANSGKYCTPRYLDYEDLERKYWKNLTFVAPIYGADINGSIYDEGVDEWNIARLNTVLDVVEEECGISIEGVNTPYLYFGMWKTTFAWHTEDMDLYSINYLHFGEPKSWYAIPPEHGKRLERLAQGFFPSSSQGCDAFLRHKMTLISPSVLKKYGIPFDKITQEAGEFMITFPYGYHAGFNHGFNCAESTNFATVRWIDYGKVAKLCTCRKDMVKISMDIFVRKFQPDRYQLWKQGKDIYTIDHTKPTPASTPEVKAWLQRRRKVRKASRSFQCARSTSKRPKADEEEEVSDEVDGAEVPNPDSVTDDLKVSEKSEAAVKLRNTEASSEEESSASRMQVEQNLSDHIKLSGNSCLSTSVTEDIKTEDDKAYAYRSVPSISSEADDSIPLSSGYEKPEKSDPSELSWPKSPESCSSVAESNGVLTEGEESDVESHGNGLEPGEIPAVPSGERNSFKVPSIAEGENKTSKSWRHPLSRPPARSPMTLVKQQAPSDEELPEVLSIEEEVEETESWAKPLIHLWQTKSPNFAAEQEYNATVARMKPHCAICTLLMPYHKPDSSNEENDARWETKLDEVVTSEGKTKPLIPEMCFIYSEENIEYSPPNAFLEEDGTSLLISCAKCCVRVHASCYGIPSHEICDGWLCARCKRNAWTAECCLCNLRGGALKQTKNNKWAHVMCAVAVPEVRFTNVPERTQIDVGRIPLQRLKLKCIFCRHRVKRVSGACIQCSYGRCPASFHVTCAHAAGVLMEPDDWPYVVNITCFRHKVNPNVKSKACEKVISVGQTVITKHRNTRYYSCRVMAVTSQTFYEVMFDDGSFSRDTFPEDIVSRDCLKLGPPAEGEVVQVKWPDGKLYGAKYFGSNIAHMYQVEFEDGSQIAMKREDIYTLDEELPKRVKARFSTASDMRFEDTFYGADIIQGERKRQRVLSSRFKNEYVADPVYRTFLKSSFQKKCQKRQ

## CN(C)NC(=O)CCC(=O)O
[1]
  IC50: 2200 µM
[2]
  IC50: 2500 µM
